How the values were obtained:
Mcl-1 = Mcl-1 (Homo sapiens, UniProt Q07820); assay: Yeast cell-surface display binding (FACS titration); parameters: Mcl-1 residues 172-327; made in house; host or cells: E. coli; details: dTERMen designs
Description: (§1) Protein constructs Anti-apoptotic protein constructs used in this work correspond to human Bcl-xL residues 1-209, Mcl-1 residues 172-327 and Bfl-1 residues 1-151, expressed in E. coli and purified as described by Dutta et al. (45).
(§2) Cells were filtered and washed 2× in chilled BSS before resuspending the labeled cells in BSS and using a BD FACSAria flow cytometer or a BD FACSCanto and FACSDiva software for cell sorting or analysis.
(§3) Crystals were flash frozen in liquid nitrogen.

The chains behind the UniProt entries cited, without tags or fusion partners. Residues count along the entry.
UniProt Q07820, 172-327: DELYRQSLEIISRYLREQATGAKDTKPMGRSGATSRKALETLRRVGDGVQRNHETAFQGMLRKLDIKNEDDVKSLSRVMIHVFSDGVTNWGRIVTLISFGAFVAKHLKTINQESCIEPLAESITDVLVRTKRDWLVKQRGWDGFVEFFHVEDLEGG

[1] = system: Bfl-1, Mcl-1, Bcl-xL, Bcl-w, and Bcl-2
Bfl-1 = target: T1, Bfl-1 (Homo sapiens, UniProt Q16548); assay: Yeast cell-surface display binding (FACS titration); parameters: Bfl-1 residues 1-151; made in house; host or cells: E. coli; details: dTERMen designs
T1 sequence (Q16548 1-151): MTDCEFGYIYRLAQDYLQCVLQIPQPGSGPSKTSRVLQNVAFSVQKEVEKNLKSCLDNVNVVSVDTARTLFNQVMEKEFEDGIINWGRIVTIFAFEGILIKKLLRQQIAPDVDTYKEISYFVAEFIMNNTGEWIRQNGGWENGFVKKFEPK
Description: as §1, §2, §3

Sequence	binding to target Mcl-1 (Mcl-1)	selectivity among Bcl-2 family members [1]	binding to target Bfl-1 (Bfl-1)	further results
APKEKEVAETLRKIGEEINEALK [dM1]	bound tightly to their targets	selective	–	–
APKEKEVARTLIKIGEEINEALK [dM5]	–	selective	–	–
APYLEQVARTLLHIGMEINEALR [dM6]	did not bind to their targets with high affinity	–	–	binding to any Bcl-2 family member tested [1]: not binding to any of the Bcl-2 family members we tested
DKTLEEIARELLKLALEIDKEI [dM7]	bound tightly to their targets	–	–	–
SLLEKLAEYLRQMADEINKKYVK [dF4]	–	–	bound tightly to their targets	–
SYIDKIADLIDKVVEEINSKLE [dF6]	–	–	did not bind to their targets with high affinity	–
SYIDKIADLIRKVAEEINSKLE [dF2]	–	highly Bfl-1 selective	–	–
SYVDKIADLMKKVAEKINSDLT [dF5]	–	highly Bfl-1 selective	–	–
SYVDKIADVMREVAEKINSDLT [dF1]	–	highly Bfl-1 selective	bound tightly to their targets	–

— patent US11286299B2, “Peptides selective for Bcl-2 family proteins” (Massachusetts Institute of Technology, priority 2018, dated 2022)
